## Ab-14 heavy chain CDR variants: yeast mating affinities

From the AlphaSeq antibody data of Li et al. 2023 (doi:10.1038/s41467-023-39022-2), copy in the FLAb collection.

All variants were tested on one target, the spike HR2 peptide PDVDLGDISGINAS (SARS-CoV-2).

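These sequences belong to a second round, designed from the earlier measurements on random variants of the parent. Several design methods are mixed in this list. The assay is AlphaSeq: two haploid yeast populations carry antibody and antigen on their surface. Binding brings cells together so that they mate, and sequencing counts the barcode pairs among the diploids. Read counts were normalised to the haploid input and turned into Kd by a linear fit to BCL2-family pairs of known affinity, for each replicate. The assay was run in six technical replicates.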

Parent scFv Ab-14: VH joined to VL by a (GGGGS)3 linker. Changes lie in the heavy chain CDRs alone.
VH: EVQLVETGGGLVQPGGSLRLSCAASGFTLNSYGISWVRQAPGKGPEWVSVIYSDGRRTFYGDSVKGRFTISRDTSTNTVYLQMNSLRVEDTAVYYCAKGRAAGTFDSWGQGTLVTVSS
VL: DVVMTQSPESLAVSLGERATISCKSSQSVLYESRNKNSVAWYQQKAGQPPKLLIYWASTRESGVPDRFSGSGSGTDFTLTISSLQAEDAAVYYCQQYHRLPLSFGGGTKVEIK

Each variant is given by its three heavy chain CDRs, as the data file delimits them; those of the parent are GFTLNSYGIS, VIYSDGRRTFYGDSVK, GRAAGTFDS.
Variants here have more than six changes.
Values are log10 of the apparent Kd in nM; lower means stronger binding.
"n.d." marks a missing value. The strain was present, yet no cells mated with the target were sequenced in that replicate, which points to weak or no binding.

| CDR-H1 | CDR-H2 | CDR-H3 | log10 Kd (nM) by replicate |
|---|---|---|---|
| GFDLDEYGIS | VIYADGKRTFYKDSVK | GSNAGTFDM | -0.14 / -0.33 / -0.50 / -0.28 / -0.63 / 0.03 |
| GFDLDQYGIS | VIYADGRRTAYANDVK | GKYAGIFLD | n.d. / n.d. / n.d. / n.d. / n.d. / n.d. |
| GFDLNEYGIS | VIYADGRRTFYTDSVK | GEHAGTFDV | -0.21 / -0.54 / -0.65 / -0.37 / -0.57 / -0.42 |
| GKDIEEYGIS | VIYADGVRAAYADSVK | GINMDIMTD | n.d. / n.d. / n.d. / n.d. / n.d. / n.d. |
| GFDLNEYGIS | VIYADGRRTFYADSVK | GEIAGTFDT | -0.12 / -0.45 / -0.35 / -0.53 / -0.31 / -0.16 |
| GFDLNEYGIS | VIYADGRRTAYADSVK | GNEAGTFDT | -0.38 / -0.34 / -0.53 / -0.58 / -0.31 / -0.32 |
| GFDINEYGIS | VIYADGQRTAYADSVK | GNVAGTFDV | -0.37 / -0.57 / -0.46 / -0.70 / -0.30 / -0.26 |
| GFDLDEYGIS | VIYADGMRKAYLDSFK | GIYGNGLWF | n.d. / n.d. / n.d. / n.d. / n.d. / n.d. |
| GKKLDEYGIS | VIYADGKRNFYSNSVK | GQHDGGLFV | n.d. / n.d. / n.d. / n.d. / n.d. / n.d. |
| GFDIMEYGVS | VIYADGVRTAYSQDVK | GNNLDSYTD | n.d. / n.d. / n.d. / n.d. / n.d. / n.d. |
| GFDLDEYGIS | VIYADGRRTFYQDSVK | GNVAGTFDM | -0.15 / -0.06 / -0.43 / -0.25 / -0.36 / -0.21 |
| GFDLNEYGIS | VIYADGKRTFYSDSVK | GNNGGTFDV | -0.42 / -0.34 / -0.49 / -0.66 / -0.52 / -0.24 |
| GFDINEYGVS | VIYADGMRSYYDDKVK | GSNGDLLEV | 1.50 / 1.02 / 1.42 / 1.53 / 1.37 / 1.63 |
| GFDLNEYGIS | VIYADGMRTAYADKVK | GENAGTFDV | 0.30 / -0.08 / -0.49 / -0.22 / -0.31 / -0.34 |
| GFDLNEYGIS | VIYADGRRTFYSDSVK | GNVGGSFDM | -0.11 / -0.24 / -0.15 / -0.55 / -0.34 / -0.33 |
| GDGLSEYGIS | VIYADGFRTSYANDVK | GTAAGGFMV | n.d. / n.d. / n.d. / n.d. / n.d. / n.d. |
| GFNLNEYGIS | VIYADGVRYAYIDSVK | GVVTLKNLY | n.d. / n.d. / n.d. / n.d. / n.d. / 2.08 |
| GFDLNEYGIS | VIYADGMRTFYSDSVK | GTNGGTFDI | 1.57 / 0.20 / 0.49 / -0.26 / -0.19 / -0.08 |
| GFSLDEYGIS | VIYADGRRTFYADSVK | GNSAGTFDI | 0.47 / 0.11 / -0.08 / 0.13 / -0.22 / -0.06 |
| GFSLDEYGIS | VIYADGVRKHYADSVK | GNIAGYLFA | n.d. / n.d. / n.d. / n.d. / n.d. / n.d. |
| GFDLNEYGIS | VIYADGRRTSYKDSVK | GEEAGTFDV | n.d. / 0.73 / 2.08 / -0.05 / 1.00 / 0.97 |
| GFDLDEYGIS | VIYADGVRTAYADSVK | GEVAGTFDL | -0.41 / -0.38 / -0.19 / -0.61 / -0.81 / 0.31 |
| GFTLNSHGIS | VKYADGRRHFYGDSVK | GEAAGTKKS | n.d. / n.d. / n.d. / n.d. / n.d. / n.d. |
| GPSLQEYGIS | VIYADGMRTAYTDSVK | GLFGATFLD | n.d. / n.d. / n.d. / n.d. / n.d. / n.d. |
| GFNLEDYGIS | VIYADGRRTFYVDSVK | GNVAGTFDV | 0.51 / 0.13 / -0.56 / -0.22 / -0.17 / 0.01 |
| GFDLDEYGIS | VIYADGMRTAYADDVK | GNNAGTFDI | 0.06 / 0.28 / 0.00 / -0.02 / -0.09 / -0.01 |
| GFDLDEYGIS | VIYADGMRTAYSDSVK | GSNAGTFDL | 0.04 / -0.63 / -0.22 / -0.21 / -0.38 / -0.38 |
| GFDLNDYGIS | VIYADGRRTAYVDSVK | GEVAGTFDS | -0.33 / -0.29 / 0.02 / -0.26 / -0.49 / -0.17 |
| GFDLNEYGIS | VIYADGQRTAYADSVK | GKAAGTFDE | 0.01 / 1.00 / -0.10 / 0.70 / -0.42 / -0.45 |
| GFDLNEYGIS | VIYADGVRTAYVDSVK | GNQAGTFDV | -0.29 / -0.33 / -0.56 / -0.78 / -0.68 / -0.31 |
| GFDLEDYGIS | VIYADGQRTFYADSVK | GNVAGTFDV | 0.18 / -0.21 / 0.39 / -0.33 / -0.44 / -0.62 |
| GFDLNEYGIS | VIYADGMRQAVVQNVK | GKINVFDSV | n.d. / n.d. / n.d. / n.d. / n.d. / n.d. |
| GFDLNEYGIS | VIYADGRRTFYVDSVK | GQNAGTFDV | -0.75 / -0.36 / 0.03 / 0.08 / -0.77 / -0.54 |
| GFEIEEYGIS | VIYADGQRTFYADNVK | GKVDTVVMY | n.d. / n.d. / n.d. / n.d. / n.d. / n.d. |
| GFQLNEYGIS | VIYADGMRSEYQDSVK | GSNSSSFKV | n.d. / n.d. / n.d. / n.d. / n.d. / n.d. |
| GFDLNEYGIS | VIYADGRRTFYADSVK | GNAAGTFVV | 1.55 / 1.99 / 0.02 / 0.28 / 1.00 / 0.70 |
| GFDLNEYGIS | VIYADGRRTFYSDSVK | GHTAGTFIQ | 0.42 / 0.12 / 0.22 / -0.28 / 0.00 / 0.48 |
| GFDLNEYGIS | VIYADGVRTAYSDSVK | GETAGTFDM | -0.55 / -0.69 / -0.61 / -0.71 / 0.34 / 0.18 |

Extract of 3 entries:

| CDR-H1 | CDR-H2 | CDR-H3 | log10 Kd (nM) by replicate |
|---|---|---|---|
| GFDLNEYGIS | VIYADGRRTAYADSVK | GNEAGTFDT | -0.38 / -0.34 / -0.53 / -0.58 / -0.31 / -0.32 |
| GFDLDEYGIS | VIYADGKRTFYKDSVK | GSNAGTFDM | -0.14 / -0.33 / -0.50 / -0.28 / -0.63 / 0.03 |
| GFDLNEYGIS | VIYADGMRQAVVQNVK | GKINVFDSV | n.d. / n.d. / n.d. / n.d. / n.d. / n.d. |

Of ten entries with the parent sequence, four were seen in most replicates (averages 0.34 to 2.37), three in one and three in none, so single entries are noisy.
Empty control strains, which show no peptide, gave a signal in 1% of pairings with all heavy chain designs; the median was 2.08 and 95% of these signals were weaker than 0.84. No background was subtracted.
The range of this assay differs from that of the first round, and the authors advise against merging the two.
In the paper, a design with two or fewer of six values counts as a poor binder.